The text below walks through data of patent US20250345383A1, “INTRANASAL ADMINISTRATION OF POLYSULFIDE” (The General Hospital Corporation, priority 2022, published 2025).

This experiment deals with mice subjected to SCI. Kind of experiment: Mouse model of spinal cord ischemia (SCI): delayed paraplegia, hindlimb motor function by Basso mouse scale (BMS). To be noted: in vivo.

Consider `CC(C)(CO)[C@@H](O)C(=O)NCCC(=O)NCCSSCCNC(=O)CCNC(=O)[C@H](O)C(C)(C)CO` [PTN, pantethine, reference compound], for which the “male mice rescued from delayed paraplegia” value is listed as “did not rescue any male mouse”.
